Molecular target: R132H mutant IDH1 enzyme (Homo sapiens (Human), UniProt O75874, R132H)
Test: R132H IDH1 Enzymatic Assay
Format: biochemical
Conditions: R132H mutant IDH1 enzyme 1.5 nM final; luminescence readout; read-out: IC50

Amino acid sequences for entries named in this document (tags omitted).
UniProt O75874, whole entry R132H: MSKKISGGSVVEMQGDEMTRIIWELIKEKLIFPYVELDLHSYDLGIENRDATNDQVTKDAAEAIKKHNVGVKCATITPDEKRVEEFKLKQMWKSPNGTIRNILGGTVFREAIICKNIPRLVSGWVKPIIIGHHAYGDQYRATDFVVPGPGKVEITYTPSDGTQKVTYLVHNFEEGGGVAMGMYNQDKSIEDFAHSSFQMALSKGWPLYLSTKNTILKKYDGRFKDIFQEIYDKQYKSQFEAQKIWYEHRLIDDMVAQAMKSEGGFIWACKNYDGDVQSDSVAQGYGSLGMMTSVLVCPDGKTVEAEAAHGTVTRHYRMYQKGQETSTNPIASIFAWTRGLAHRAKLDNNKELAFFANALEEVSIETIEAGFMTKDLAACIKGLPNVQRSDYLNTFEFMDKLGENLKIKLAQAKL

Structure (SMILES) | IC50 [µM]
CO[C@H]1CO[C@](C)(c2ccc3c(c2)N(C(=O)[C@H]2CC[C@H](OC(C)C)CO2)Cc2cccnc2N3)C1 (single isomer, unassigned) [Example 143] | 0.082
CON=C1CCC(C(=O)N2Cc3cccnc3Nc3ccc(C4CCOCC4)cc32)CC1 (stereo not drawn) [Example 394, 4-{[8-(tetrahdyro-2H-pyran-4-yl)-5,11-dihydro-6H-pyrido[2,3-b][1,5]benzodiazepin-6-yl]carbonyl}cyclohexanone O-methyloxime] | 0.03
CO[C@H]1CC[C@H](C(=O)N2Cc3cccnc3Nc3ccc(N4CCn5c(C)nnc5C4)cc32)CC1 [Example 267, 6-[(trans-4-methoxycyclohexyl)carbonyl]-8-(3-methyl-5,6-dihydro[1,2,4]triazolo[4,3-a]pyrazin-7(8H)-yl)-6,11-dihydro-5H-pyrido[2,3-b][1,5]benzodiazepine] | 0.749
CC(C)O[C@H]1CC[C@H](C(=O)N2Cc3cccnc3Nc3ccc([C@@]4(C)C[C@@H](OC(C)C)CO4)cc32)OC1 (single isomer, unassigned) [Example 149] | 0.075
O=C(C1CCN(CC(F)(F)F)CC1)N1Cc2cccnc2Nc2ccc(N3CC4CCC3CO4)cc21 (stereo not drawn) [Example 321, 8-(2-oxa-5-azabicyclo[2.2.2]oct-5-yl)-6-{[1-(2,2,2-trifluoroethyl)piperidin-4-yl]carbonyl}-6,11-dihydro-5H-pyrido[2,3-b][1,5]benzodiazepine] | 0.035
O=C([C@H]1CC[C@@H](N(CC(F)(F)F)C2CC2)CC1)N1Cc2cccnc2Nc2ccc(C3CCOCC3)cc21 [Example 464, cis-N-cyclopropyl-4-{[8-(tetrahydro-2H-pyran-4-yl)-5,11-dihydro-6H-pyrido[2,3-b][1,5]benzodiazepin-6-yl]carbonyl}-N-(2,2,2-trifluoroethyl)cyclohexanamine] | 0.085
CC(C)(C)O[C@H]1CC[C@H](C(=O)N2Cc3cccnc3Nc3ccc(N4C[C@@H]5CC[C@H]4CO5)cc32)OC1 (single isomer, unassigned) [Example 329] | 0.012
C=CC(=O)N1C[C@H]2CC[C@@H]1CN2c1ccc2c(c1)N(C(=O)C1CC(C)(C)C1)Cc1cccnc1N2 [Example 499, 8-[(1R,4R)-5-acryloyl-2,5-diazabicyclo[2.2.2]oct-2-yl]-6-[(3,3-dimethylcyclobutyl)carbonyl]-6,11-dihydro-5H-pyrido[2,3-b][1,5]benzodiazepine] | 0.125
CC(C)O[C@H]1CC[C@H](C(=O)N2Cc3cccnc3Nc3ccc(C(C)OC[C@@H]4CCCO4)cc32)CC1 (stereo partly drawn) [Example 546, 6-{[trans-4-(1-methylethoxy)cyclohexyl]carbonyl}-8-{1-[(2S)-tetrahydrofuran-2-ylmethoxy]ethyl}-6,11-dihydro-5H-pyrido[2,3-b][1,5]benzodiazepine] | 0.017
CO[C@H]1CC[C@H](C(=O)N2Cc3cccnc3Nc3ccc(C4CCOCC4)cc32)CC1 [Example 513, 6-[(Trans-4-methoxycyclohexyl)carbonyl]-8-(tetrahydro-2H-pyran-4-yl)-6,11-dihydro-5H-pyrido[2,3-b][1,5]benzodiazepine] | 0.054
C[C@H]1CC[C@@](C)(C(=O)N2Cc3cccnc3Nc3ccc(N4CCOCC4)cc32)C1(C)C [Example 72, 8-morpholin-4-yl-6-{[(1R,3S)-1,2,2,3-tetramethylcyclopentyl]carbonyl}-6,11-dihydro-5H-pyrido[2,3-b][1,5]benzodiazepine] | 0.561
CC1CC(c2ccc3c(c2)N(C(=O)[C@H]2CC[C@H](OC(C)C)CC2)Cc2cccnc2N3)CC(C)O1 (stereo partly drawn) [Example 397, 8-(2,6-dimethyltetrahydro-2H-pyran-4-yl)-6-{[trans-4-(1-methylethoxy)cyclohexyl]carbonyl}-6,11-dihydro-5H-pyrido[2,3-b][1,5]benzodiazepine] | 0.02
CC(C)O[C@H]1CC[C@H](C(=O)N2Cc3cccnc3Nc3ccc(N4C[C@H]5CC[C@@H]4CO5)cc32)OC1 (single isomer, unassigned) [Example 41] | 0.022
CN1CC[C@@H](C(=O)N2Cc3cccnc3Nc3ccc(N4CCOCC4)cc32)C[C@H]1C(F)(F)F [Example 166, 6-{[(2S,4R)-1-methyl-2-(trifluoromethyl)piperidin-4-yl]carbonyl}-8-morpholin-4-yl-6,11-dihydro-5H-pyrido[2,3-b][1,5]benzodiazepine] | 0.557

More lines, in order of falling IC50, values ahead:

IC50 [µM] | Structure (SMILES)
0.91 | CO[C@H]1CC[C@@H](C(=O)N2Cc3cccnc3Nc3ccc(N4CCN(CC(F)(F)F)CC4)cc32)CC1 [Example 239, 6-[(cis-4-methoxycyclohexyl)carbonyl]-8-[4-(2,2,2-trifluoroethyl)piperazin-1-yl]-6,11-dihydro-5H-pyrido[2,3-b][1,5]benzodiazepine]
0.459 | CO[C@H]1CC[C@H](C(=O)N2Cc3cccnc3Nc3ccc(N4CCCC(OCC(F)(F)F)C4)cc32)CC1 (stereo partly drawn) [Example 246, 6-[(trans-4-methoxycyclohexyl)carbonyl]-8-[3-(2,2,2-trifluoroethoxy)piperidin-1-yl]-6,11-dihydro-5H-pyrido[2,3-b][1,5]benzodiazepine]
0.346 | CCO[C@@H]1CC[C@H](C(=O)N2Cc3cccnc3Nc3ccc(N4CCOCC4)cc32)C1 [Example 65, 6-{[(1S,3R)-3-ethoxycyclopentyl]carbon-yl}-8-morpholin-4-yl-6,11-dihydro-5H-pyrido[2,3-b][1,5]benzodiazepine]
0.344 | CCCCC[C@H]1CC[C@H](C(=O)N2Cc3cccnc3Nc3ccccc32)CC1 [Example 69, 6-[(trans-4-pentylcyclohexyl)carbon-yl]-6,11-dihydro-5H-pyrido[2,3-b][1,5]benzodiazepine]
0.286 | CO[C@H]1CC[C@H](C(=O)N2Cc3cccnc3Nc3ccc(N4CC[C@H](F)C4)cc32)CC1 [Example 264, 8-[(3S)-3-fluoropyrrolidin-1-yl]-6-[(trans-4-methoxycyclohexyl)carbonyl]-6,11-dihydro-5H-pyrido[2,3-b][1,5]benzodiazepine]
0.266 | CO[C@H]1CC[C@H](C(=O)N2Cc3cccnc3Nc3ccc(N4CCOC(c5ccc(F)cc5)C4)cc32)CC1 (stereo partly drawn) [Example 258, 8-[2-(4-fluorophenyl)morpholin-4-yl]-6-[(trans-4-methoxycyclohexyl)carbonyl]-6,11-dihydro-5H-pyrido[2,3-b][1,5]benzodiazepine]
0.223 | CO[C@H]1CC[C@H](C(=O)N2Cc3cccnc3Nc3ccc(N4CCOC5CCCC54)cc32)CC1 (stereo partly drawn) [Example 231, 8-(hexahydrocyclopenta[b][1,4]oxazin-4(4aH)-yl)-6-[(trans-4-methoxycyclohexyl)carbonyl]-6,11-dihydro-5H-pyrido[2,3-b][1,5]benzodiazepine]
0.219 | CO[C@H]1CC[C@H](C(=O)N2Cc3cccnc3Nc3ccc(-c4cnc(N(C)C)nc4)cc32)CC1 [Example 401, 5-{6-[(trans-4-methoxycyclohexyl)carbonyl]-6,11-dihydro-5H-pyrido[2,3-b][1,5]benzodiazepin-8-yl}-N,N-dimethylpyrimidin-2-amine]
0.204 | COC(C)C1CCC(C(=O)N2Cc3cccnc3Nc3ccc(N4CCOCC4)cc32)CC1 (stereo not drawn) [Example 87, 6-{[4-(1-methoxyethyl)cyclohexyl]-carbonyl}-8-morpholin-4-yl-6,11-dihydro-5H-pyrido[2,3-b][1,5]benzodiazepine]
0.187 | CO[C@H]1CC[C@H](C(=O)N2Cc3cccnc3Nc3ccc(-c4cnn(C(C)(C)C)c4)cc32)CC1 [Example 363, 8-(1-tert-butyl-1H-pyrazol-4-yl)-6-[(trans-4-methoxycyclohexyl)carbonyl]-6,11-dihydro-5H-pyrido[2,3-b][1,5]benzodiazepine]
0.099 | C[C@H]1CC(F)(F)CC[C@@H]1C(=O)N1Cc2cccnc2Nc2ccc(-c3ccc(C(N)=O)nc3)cc21 (relative stereo) [Example 188, Trans 5-{6-[(4,4-difluoro-2-methylcyclohexyl)carbonyl]-6,11-dihydro-5H-pyrido[2,3-b][1,5]benzodiazepin-8-yl}pyridine-2-carboxamide]
0.078 | O=C([C@H]1CC[C@H](OC2CCC2)CC1)N1Cc2cccnc2Nc2ccc(N3CCOCC3)cc21 [Example 95, 6-{[trans-4-(cyclobutyloxy)cyclohex-yl]carbonyl}-8-morpholin-4-yl-6,11-dihydro-5H-pyrido[2,3-b][1,5]benzodiazepine]
0.075 | O=C([C@H]1CC[C@@H](O[C@H]2CC2(F)F)CC1)N1Cc2cccnc2Nc2ccc(N3CCOCC3)cc21 (single isomer, unassigned) [Example 104]
0.059 | O=C([C@H]1CC[C@H](NCC(F)(F)F)CC1)N1Cc2cccnc2Nc2ccc([C@H]3CCCOC3)cc21 (single isomer, unassigned) [Example 376]
0.048 | O=C([C@H]1CC[C@@H](NCC(F)(F)F)CC1)N1Cc2cccnc2Nc2ccc([C@@H]3CCCOC3)cc21 [Example 377, cis-4-({8-[(3S)-tetrahydro-2H-pyran-3-yl]-5,11-dihydro-6H-pyrido[2,3-b][1,5]benzodiazepin-6-yl}carbonyl)-N-(2,2,2-trifluoroethyl)cyclohexanamine]
0.044 | O=C([C@H]1CC[C@@H](N(CC(F)(F)F)C2CC2)CC1)N1Cc2cccnc2Nc2ccc(N3CCOCC3)cc21 [Example 468, cis-N-cyclopropyl-4-[(8-morpholin-4-yl-5,11-dihydro-6H-pyrido[2,3-b][1,5]benzodiazepin-6-yl)carbonyl]-N-(2,2,2-trifluoroethyl)cyclohexanamine]
0.02 | CC(C)O[C@H]1CC[C@H](C(=O)N2Cc3cccnc3Nc3ccc(C4CCOC4)cc32)OC1 (single isomer, unassigned) [Example 15]
0.016 | O=C(C1CCN(C2(C(F)(F)F)CCC2)CC1)N1Cc2cccnc2Nc2ccc(N3CCOCC3)cc21 [Example 39, 8-morpholin-4-yl-6-({1-[1-(trifluoromethyl)cyclobutyl]piperidin-4-yl}carbonyl)-6,11-dihydro-5H-pyrido[2,3-b][1,5]benzodiazepine]
0.015 | CC(C)O[C@H]1CC[C@H](C(=O)N2Cc3cccnc3Nc3ccc(C4(C#N)CC4)cc32)CC1 [Example 137, 1-(6-{[trans-4-(1-methylethoxy)cyclohexyl]-carbonyl}-6,11-dihydro-5H-pyrido[2,3-b][1,5]benzodiazepin-8-yl)cyclopropanecarbo-nitrile]
